## Curated experimental data: fraction unbound values

Source: data files of OPERA 2.9 (Mansouri et al.), github.com/kmansouri/OPERA.

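The numbers are reported measurements, compiled and curated for the OPERA QSAR suite. The files give a single number for a compound and property, which may rest on several reports. How each value was measured is not recorded, so precision varies. A value may pool stereoisomers or salt forms, and the file does not say which form was measured. Some entries may be limits or estimates that an upstream database listed as plain numbers.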

fu is the fraction unbound in human plasma, from 0 to 1.

* CN[C@@H]1C[C@H]2O[C@@](C)([C@@H]1OC)n1c3ccccc3c3c4c(c5c6ccccc6n2c5c31)C(=O)N[C@@H]4O [7-Hydroxystaurosporine]: plasma fu 0.0036
* CC(C)(Oc1ccc(Cl)cc1)C(=O)O [Clofibric acid]: plasma fu 0.02
* O=S1(=O)OC(c2ccc([O-])cc2)(c2ccc(O)cc2)c2ccccc21.[Na+] [Phenol red sodium salt]: plasma fu 0.1117
* CC[C@]1(O)C[C@H]2C[N@](CCc3c([nH]c4ccccc34)[C@@](C(=O)OC)(c3cc4c(cc3OC)N(C)[C@H]3[C@@](O)(C(N)=O)[C@H](O)[C@]5(CC)C=CCN6CC[C@]43[C@@H]65)C2)C1 [Vindesine]: plasma fu 0.3
* COc1cc(NS(C)(=O)=O)ccc1Nc1c2ccccc2nc2ccccc12 [Amsacrine]: plasma fu 0.02675
* Cc1ccc(C(=CCN2CCCC2)c2cccc(/C=C/C(=O)O)n2)cc1 [Acrivastine]: plasma fu 0.5
* C#C[C@]1(O)CC[C@H]2[C@@H]3CCC4=CCCC[C@@H]4[C@H]3CC[C@@]21C [Lynestrenol]: plasma fu 0.04
* CC[C@]12CC[C@@H]3[C@H]4CC/C(/C=C4CC[C@H]3[C@@H]1CC[C@@]2(O)C#C)=NO: plasma fu 0.03
* CC(C)C[C@H](NC(=O)[C@@H](COC(C)(C)C)NC(=O)[C@H](Cc1ccc(O)cc1)NC(=O)[C@H](CO)NC(=O)[C@H](Cc1c[nH]c2ccccc12)NC(=O)[C@H](Cc1c[nH]cn1)NC(=O)[C@@H]1CCC(=O)N1)C(=O)N[C@@H](CCCNC(=N)N)C(=O)N1CCC[C@H]1C(=O)NNC(N)=O [Goserelin]: plasma fu 0.8
* C[n+]1ccccc1/C=N/O.[Cl-] [Pralidoxime chloride]: plasma fu 0.95
* CN(C)c1cc(NC(=O)CNC(C)(C)C)c(O)c2c1C[C@H]1C[C@H]3[C@H](N(C)C)C(O)=C(C(N)=O)C(=O)[C@@]3(O)C(O)=C1C2=O [Tigecycline]: plasma fu 0.2
* COC(=O)[C@H](c1ccccc1Cl)N1CCc2sccc2C1 [Clopidogrel]: plasma fu 0.01649
* Cn1c(=O)c2c(ncn2CCCNCC(O)c2cc(O)cc(O)c2)n(C)c1=O (centres undefined) [Reproterol]: plasma fu 0.5
* CN1CCN(CC1)c1ccccc1/C=C1SCCN(C1=O)c1cc(Cl)c(Cl)cc1: plasma fu 0.0329
* Cc1[nH]nc2c1N=C(c1ccccc1Cl)c1cc([N+](=O)[O-])ccc1N2: plasma fu 0.0135
* CC1(C)S[C@@H]2[C@H](/N=C/N3CCCCCC3)C(=O)N2[C@H]1C(=O)O [Amdinocillin]: plasma fu 0.86
* CCc1ccc(O)c(C(C)(C)C)c1 [2-tert-butyl-4-ethylphenol]: plasma fu 0.0454
* C=C(C)C(=O)OCCC(F)(F)C(F)(F)C(F)(F)C(F)(F)C(F)(F)C(F)(F)F [6:2 Fluorotelomer methacrylate]: plasma fu 0.02653
* CCCCCCc1ccc(N)cc1: plasma fu 0.00695
* CCN(CC)CCNC(=O)c1cc(Br)c(N)cc1OC [Bromopride]: plasma fu 0.6
* CCN(CC)CCCN(c1ccccc1)C1Cc2ccccc2C1 [Aprindine]: plasma fu 0.05
* COc1ccccc1Oc1c(NS(=O)(=O)c2ccc(C(C)C)cn2)nc(-c2ccnc(-c3nn[nH]n3)c2)nc1OCCO [Tezosentan]: plasma fu 0.00875
* Nc1ccc(C(=O)O)c(O)c1 [Aminosalicylic acid]: plasma fu 0.38
* CCOC(=O)[C@H](CCc1ccccc1)N[C@H]1CCCN2CCC[C@@H](C(=O)O)N2C1=O [Cilazapril]: plasma fu 0.75
* c1ccccc1 [Benzene]: plasma fu 0.46
* CCC[C@@H](c1ccc(C(=O)O)c(Oc2cccc(Cl)c2)c1)N1CCC[C@H](n2cc(C)c(=O)[nH]c2=O)C1: plasma fu 0.009127
* C=CCOC(Cn1ccnc1)c1ccc(Cl)cc1Cl (centres undefined) [Imazalil]: plasma fu 0.02993
* COCC(=O)O[C@]1(CCN(C)CCCc2nc3ccccc3[nH]2)CCc2cc(F)ccc2[C@@H]1C(C)C [Mibefradil]: plasma fu 0.00625
* Cc1nc2n(c(=O)c1CCN1CCC(c3noc4cc(F)ccc34)CC1)CCC[C@H]2O [Paliperidone]: plasma fu 0.23
* CCC(=O)NCCC1CCc2ccc3c(c21)CCO3 (centres undefined) [Ramelteon]: plasma fu 0.18
* Nc1ccn([C@H]2CC[C@@H](CO)O2)c(=O)n1 [2',3'-Dideoxycytidine]: plasma fu 0.97
* CN(C)N=Nc1nc[nH]c1C(N)=O [Dacarbazine]: plasma fu 0.9883
* CN1CCC(=C2c3ccccc3CCn3c(C=O)cnc32)CC1: plasma fu 0.4905
* C#CCN[C@@H]1CCc2ccccc21 [Rasagiline]: plasma fu 0.09
* CC[C@H](CO)Nc1nc(SCc2ccccc2)nc2nc(N)sc12: plasma fu 0.02087
* COc1ccccc1N1CCN(CCCNc2cc(=O)n(C)c(=O)n2C)CC1 [Urapidil]: plasma fu 0.2
* CC1(C)S[C@@H]2[C@H](NC(=O)[C@@H](c3ccccc3)S(=O)(=O)O)C(=O)N2[C@H]1C(=O)O [D-(-)-Sulbenicillin]: plasma fu 0.5
* CN(C)CCn1nnnc1SCC1=C(C(=O)O)N2C(=O)[C@@H](NC(=O)Cc3csc(N)n3)[C@H]2SC1 [Cefotiam]: plasma fu 0.6
* Cc1[n]c([s]c1CC(O)=O)SCC1CS[C@@H]2[C@H](NC(=O)/C(=NOC)/c3c[s]c(N)[n]3)C(=O)N2C=1C(O)=O: plasma fu 0.1825
* CC1CS[C@@H]2[C@H](NC(=O)/C(=NOC)/c3c[s]c(N)[n]3)C(=O)N2C=1C(O)=O: plasma fu 0.78
* Cc1c(C2(c3cc(Br)c(O)c(Br)c3C)OS(=O)(=O)c3ccccc32)cc(Br)c(O)c1Br [Bromcresol green]: plasma fu 0.00183
* Cc1ccnc(NS(=O)(=O)c2ccc(N)cc2)n1 [Sulfamerazine]: plasma fu 0.15
* O=C(O)c1ccccc1-c1c2ccc(=O)cc-2oc2cc(O)ccc12: plasma fu 0.1899

The first 3 entries again:

{"smiles": "CN[C@@H]1C[C@H]2O[C@@](C)([C@@H]1OC)n1c3ccccc3c3c4c(c5c6ccccc6n2c5c31)C(=O)N[C@@H]4O", "name": "7-Hydroxystaurosporine", "plasma fu": "0.0036"}
{"smiles": "CC(C)(Oc1ccc(Cl)cc1)C(=O)O", "name": "Clofibric acid", "plasma fu": "0.02"}
{"smiles": "O=S1(=O)OC(c2ccc([O-])cc2)(c2ccc(O)cc2)c2ccccc21.[Na+]", "name": "Phenol red sodium salt", "plasma fu": "0.1117"}